Here are results for one substance from patent publication US20190365806A1, “IMMUNOLOGICALLY DISCERNIBLE CELL SURFACE VARIANTS FOR USE IN CELL THERAPY” (UNIVERSITÄT BASEL, priority 2016, published 2019).

The experiment concerns CD25/Foxp3+ Treg cells. The experiment is described as follows: IL-2 treatment of mice that received WT and Repaired cells. It counts as in vivo. Particulars: IL-2 during the last week of experiment. The source says:
In vitro activation and electroporation with plasmids encoding sgRNA targeting the Foxp3K276X mutation and a circular plasmid containing a 1 kb wt Foxp3 repair template. Successfully transfected cells are isolated based on GFP expression. Cells are the transferred in vivo for Foxp3 differentiation followed by IL-2 regimen.
No CD25/Foxp3+ T cells are found in mice that received KO cells.

Turning to “IL-2: Interleukin-2 treatment during the last week of experiment”, the “CD25/Foxp3+ Treg cells after additional IL-2 treatment” value is reported as “increased presence of CD25/Foxp3+ Treg cells”.
